# AlphaSeq binding of Ab-14 light chain variants to a spike HR2 peptide

From the AlphaSeq antibody data of Engelhart et al. 2022 (doi:10.1038/s41597-022-01779-4), copy in the FLAb collection.

Target peptide (SARS-CoV-2 spike, HR2 region): PDVDLGDISGINAS

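The starting antibody came from a phage panning campaign against this peptide. Library AAYL50 holds single substitutions and randomly drawn double and triple substitutions in the CDRs. In AlphaSeq, yeast of one mating type display the scFv and yeast of the other type display the target. Binding brings cells together so that they mate, and sequencing counts the barcode pairs among the diploids. The ratio of observed to expected reads was calibrated, replicate by replicate, on BCL2-family standards whose Kd was known from biolayer interferometry. Each pool was mated in three replicate cultures.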

Parent: Ab-14, a human scFv built as VH, a 15-residue (Gly4Ser)3 linker, VL. Only the CDRs of the light chain vary.
VH: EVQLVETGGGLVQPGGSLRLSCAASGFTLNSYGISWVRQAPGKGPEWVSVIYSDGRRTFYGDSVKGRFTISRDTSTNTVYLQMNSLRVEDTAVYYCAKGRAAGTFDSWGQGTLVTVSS
VL: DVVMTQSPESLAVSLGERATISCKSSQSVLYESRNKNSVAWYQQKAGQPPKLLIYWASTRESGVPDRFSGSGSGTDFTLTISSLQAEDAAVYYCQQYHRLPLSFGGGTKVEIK

The parent's light chain CDRs are KSSQSVLYESRNKNSVA, WASTRES, QQYHRLPLS; each variant's own CDRs replace them letter for letter. Affinities are written as log10 Kd with Kd in nM; a lower number is a better binder. The mean shown is taken over the replicates in which the pair was detected. "nd" means that the variant was in the library but no mating with the target was seen in that replicate; the authors take this as a sign of poor binding, and no number exists.

| # | CDR-L1 | CDR-L2 | CDR-L3 | log10 Kd, replicates | log10 Kd (nM), mean | empty controls |
|---|---|---|---|---|---|---|
| 1 | KYSQSVLYELRNKNSVA | WASTRES | QQYMRLPLS | 1.82 1.75 1.90 | 1.82 | 2 of 9 (3.42) |
| 2 | KSSQSVYYESRNKNSVA | WASHREP | QQYHRLPLS | 1.74 2.00 1.96 | 1.90 | 3 of 9 (3.75) |
| 3 | KSSQSVWVESRNKVSVA | WASTRES | QQYHRLPLS | 1.52 1.53 1.82 | 1.62 | 1 of 9 (4.46) |
| 4 | KSSQSVLYESRNKNAVA | WASTRES | LQYHRLPLI | nd nd nd | nd | 2 of 9 (3.37) |
| 5 | VSSQSVLYESRNKNSVA | HASTRES | QQYHRLPLS | 0.21 0.42 0.19 | 0.27 | 0 of 9 |
| 6 | KSSMSVLYLSRNKNSVA | WASTRTS | QQYHRLPLS | 2.41 2.52 2.65 | 2.53 | 3 of 9 (3.99) |
| 7 | KSSQSVLYESRNKNSVA | EASTREV | QQHHRLPLS | nd nd nd | nd | 2 of 9 (3.00) |
| 8 | KSSQSVLFESRNKNSVA | WASTRES | VQYHRLPLN | 3.67 nd nd | 3.67 | 1 of 9 (4.04) |
| 9 | KSSQSVLYESRNKNSVD | WASRRES | QQYHALPLS | nd nd nd | nd | 1 of 9 (2.95) |
| 10 | KSSQSVLYESRNKNSVA | WASTRES | QQPHRLHLD | 0.44 0.81 0.59 | 0.61 | 6 of 9 (4.58) |
| 11 | KSDQSVLYESRNLNSVA | WASTRES | QQYHRLPSS | 0.86 1.08 1.17 | 1.04 | 0 of 9 |
| 12 | KNSASVLYESRRKNSVA | WASTRES | QQYHRLPLS | nd nd 5.79 | 5.79 | 2 of 9 (3.75) |
| 13 | KSSQSVLYESRNKLSVA | WAVTCES | QQYHRLPLS | nd 3.43 nd | 3.43 | 3 of 9 (4.10) |
| 14 | KSSQAVLYESRQKNSGA | WASTRES | QQYHRLPLS | 3.96 5.19 nd | 4.58 | 4 of 9 (4.62) |
| 15 | KSSQSVLYESHNKNPVA | WASTRES | QQYHRLQLS | nd nd nd | nd | 0 of 9 |
| 16 | KSSQSVLYESRNQNSVA | WASTDES | QQQHRLPLS | nd nd nd | nd | 0 of 9 |
| 17 | KSSQSVLYESRNNNSVM | WASTRES | QQYYRLPLS | 4.52 nd 5.38 | 4.95 | 2 of 9 (5.32) |
| 18 | KSSQSVLYESPNKNFVA | WASTREK | QQYHRLPLS | 3.22 2.68 nd | 2.95 | 1 of 9 (5.10) |
| 19 | KSSQSVLYESRNKNSVG | WAYTRES | QQYHRLPLS | 4.62 4.23 nd | 4.42 | 4 of 9 (4.97) |
| 20 | KSSQSVLYESRNKNSVA | MASARES | QQYHRLPLS | 0.85 1.05 1.07 | 0.99 | 5 of 9 (4.24) |
| 21 | KSSASVLYESRNKISVA | HASTRES | QQYHRLPLS | 0.61 0.84 0.83 | 0.76 | 3 of 9 (4.71) |
| 22 | DNSQSVLYESRNKNSVA | WASTRES | QQYHRLELS | 5.47 nd 5.13 | 5.30 | 1 of 9 (5.06) |
| 23 | KSSQSVLYESRNKNSVA | WTSTRPS | QQYHRPPLS | 2.47 1.83 1.98 | 2.09 | 0 of 9 |
| 24 | KSSQSVLYESRNKNSVA | GASTREE | QQYHRLPLS | -0.27 0.08 -0.11 | -0.10 | 3 of 9 (4.95) |
| 25 | PSSQSCLYESRNKNSVA | WASTRES | QQYFRLPLS | nd nd nd | nd | 0 of 9 |
| 26 | KSHQSVVYESRNKNSVA | WASTRES | QQYHRLPLS | nd 4.70 nd | 4.70 | 0 of 9 |
| 27 | KSSQSVLYECRNKNMVA | WASTRES | QGYHRLPLS | nd nd nd | nd | 0 of 9 |
| 28 | KSSTSVLYESRTKNSVA | WASTRES | QQYHRLPLS | 2.37 2.37 2.47 | 2.40 | 3 of 9 (4.49) |
| 29 | KSSQSMLYQSRNKNSVA | WASTRES | QQWHRLPLS | nd 3.62 nd | 3.62 | 0 of 9 |
| 30 | KSSQSVLYESLNKNSVA | WCSTRES | QQYHALPLS | nd nd 2.23 | 2.23 | 0 of 9 |
| 31 | KSSQSVLEESRNTNSVA | WASQRES | QQYHRLPLS | nd nd 4.26 | 4.26 | 2 of 9 (3.73) |
| 32 | KSSQSVLYESYNTNSVW | WASTRES | QQYHRLPLS | nd nd nd | nd | 1 of 9 (3.70) |
| 33 | KSMQSVKYESRNKNSVA | WASTRES | FQYHRLPLS | nd nd 5.09 | 5.09 | 2 of 9 (4.54) |
| 34 | KSSQSVLYPSRNKNSVA | WASTRES | QQYRQLPLS | 1.03 1.38 1.37 | 1.26 | 1 of 9 (2.73) |
| 35 | KSSQSVLYESRNKNSVA | WANWRES | QQYHWLPLS | 3.87 2.82 4.15 | 3.61 | 4 of 9 (4.15) |
| 36 | KSSQSVLYESRNKNSVA | WAVTRES | QQYRRLPLS | 3.04 2.67 3.49 | 3.07 | 3 of 9 (4.19) |
| 37 | KSSQSVLYESRNHNSVA | WATTRAS | QQYHRLPLS | 1.00 1.16 1.19 | 1.12 | 5 of 9 (4.84) |
| 38 | KSSQSVLYESENKNSVA | WASTRES | QYYHRLPRS | nd nd nd | nd | 0 of 9 |
| 39 | KSSQSVLYESRNKNSVA | WASTREQ | QQYHRLVLS | 0.94 1.06 1.17 | 1.06 | 0 of 9 |
| 40 | KSSQPVQYESRNKNSVA | MASTRES | QQYHRLPLS | 0.24 0.61 0.39 | 0.41 | 7 of 9 (4.42) |
| 41 | KSSQSVRYESRNKNSVA | WVSTREP | QQYHRLPLS | 2.18 1.98 2.14 | 2.10 | 1 of 9 (4.21) |
| 42 | KSSQSVLYPSRNKNSVA | WASTRES | QQYHHLPLI | nd nd nd | nd | 1 of 9 (1.26) |
| 43 | KSSPSVLYESRNKNSVA | HWSTRES | QQYHRLPLS | 3.93 2.23 nd | 3.08 | 1 of 9 (4.29) |
| 44 | KSNQLVLYESRNKNSVA | WASTDES | QQYHRLPLS | nd nd nd | nd | 0 of 9 |
| 45 | KSSQSVLSESRNKNSVA | WASTRES | QGYHRLPLS | nd 2.95 nd | 2.95 | 0 of 9 |
| 46 | KSSQSVLYGSRNKNSVA | WASTMES | QQYHRLPES | nd nd nd | nd | 0 of 9 |
| 47 | KSSQSVLYESRRKNSVA | WKSTRES | QQYHRLPLR | nd 3.65 nd | 3.65 | 3 of 9 (3.63) |
| 48 | KSSQSVLYESRNHNSVA | WNSTREL | QQYHRLPLS | nd 4.58 nd | 4.58 | 4 of 9 (3.94) |
| 49 | KSSQSVLYESRNKNEVA | WASGRES | QQDHRLPLS | 4.72 nd nd | 4.72 | 1 of 9 (4.67) |

Nonspecific signal, from three strains lacking the peptide, appeared in 18% of pairings of library AAYL50, centred on 4.19 (5% of these signals below 2.99); values are not corrected for it. Also given: how often the same scFv was detected with the empty control strains, with their mean in brackets.